# Measured values: US10214520B2, “Substituted azaspiro(4.5)decane derivatives” (priority 2014, dated 2019)
# Sequences of proteins named here, by UniProt entry; tags and fusion partners are left off.
# UniProt P41146, whole entry: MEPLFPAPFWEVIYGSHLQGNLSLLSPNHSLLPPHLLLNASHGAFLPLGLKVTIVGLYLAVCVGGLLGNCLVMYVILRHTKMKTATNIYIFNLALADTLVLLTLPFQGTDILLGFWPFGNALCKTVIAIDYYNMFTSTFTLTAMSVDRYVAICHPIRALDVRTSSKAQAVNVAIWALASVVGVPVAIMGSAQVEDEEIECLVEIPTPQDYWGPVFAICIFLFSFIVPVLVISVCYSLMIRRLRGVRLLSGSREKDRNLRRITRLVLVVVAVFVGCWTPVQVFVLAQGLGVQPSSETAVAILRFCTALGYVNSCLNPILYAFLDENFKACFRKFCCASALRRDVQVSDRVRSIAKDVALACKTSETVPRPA
# UniProt P35372, whole entry: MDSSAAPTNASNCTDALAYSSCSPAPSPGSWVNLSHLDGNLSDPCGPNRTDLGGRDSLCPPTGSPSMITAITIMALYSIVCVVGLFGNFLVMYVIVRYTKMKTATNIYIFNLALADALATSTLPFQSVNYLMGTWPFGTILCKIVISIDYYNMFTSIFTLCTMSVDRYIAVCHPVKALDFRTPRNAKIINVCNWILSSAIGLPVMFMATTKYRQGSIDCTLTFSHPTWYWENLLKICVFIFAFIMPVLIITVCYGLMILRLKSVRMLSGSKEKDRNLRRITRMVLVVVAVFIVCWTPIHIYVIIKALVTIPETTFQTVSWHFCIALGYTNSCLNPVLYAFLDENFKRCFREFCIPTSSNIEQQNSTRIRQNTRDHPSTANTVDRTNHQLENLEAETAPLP
# Tests used:
# ORL1 receptor = ORL1 receptor (Homo sapiens, UniProt P41146); assay: ORL1 receptor binding assay with 3H-nociceptin/orphanin FQ, membranes from recombinant CHO-ORL1 cells (WGA-SPA beads); settings: for % inhibition (ORL1) [1 μM] / ORL1 % Inhibition @ 1 μM: test concentration 1 μM
# human μ opiate receptor = human μ opiate receptor (Homo sapiens, UniProt P35372); assay: μ opiate receptor binding assay with [3H]-naloxone, membrane preparation of CHO-K1 cells (WGA-SPA beads); settings: for % inhibition (μ) [1 μM] / MOP % Inhibition @1 μM: test concentration 1 μM
# [1] = tested on: Female Sprague Dawley rats; assay: Analgesia in the tail flick (focal ray) test in rats, intravenous administration; settings: @100 μg/kg
# [2] = read-out: Ki (ORL1) mean [μm], mean
# [3] = read-out: Ki (μ) mean [μm], mean
Structure (SMILES),Ki (ORL1 receptor; [2]),% inhibition (ORL1) [1 μM] (ORL1 receptor),Ki (human μ opiate receptor; [3]),% inhibition (μ) [1 μM] (human μ opiate receptor),"Tail flick rat, i.v. % MPE (@μg/kg) [1]",Ki (ORL1 receptor; read-out: ORL1 Ki),ORL1 % Inhibition @ 1 μM (ORL1 receptor),Ki (human μ opiate receptor; read-out: MOP Ki),MOP % Inhibition @1 μM (human μ opiate receptor)
Cc1ccc(CN2CCC3(CCC(c4cccs4)(N(C)C)CC3)C2)s1 (stereo not shown),0.49 nM,97%,0.58 nM,101%,11%@100 % MPE,–,–,–,–
CN(C)C1(c2cccs2)CCC2(CCN(Cc3cccs3)C2)CC1 (stereo not shown),0.53 nM,97.5%,0.83 nM,99.5%,–,–,–,–,–
CN(C)C1(c2ccccc2)CCC2(CC1)CC(=O)N(Cc1ccc(F)s1)C2 (stereo not shown),0.9 nM,97%,0.89 nM,98%,–,–,–,–,–
CN(C)C1(c2ccccc2)CCC2(CCN(C(=O)c3ccc(F)s3)C2)CC1 (stereo not shown),1.09 nM,96.5%,0.85 nM,98.5%,–,–,–,–,–
CN(C)[C@]1(c2ccccc2)CC[C@]2(CC1)CC(=O)N(CC(=O)NCCc1ccccc1)C2,–,–,–,–,–,2.6 nM,98%,0.9 nM,98%
CN(C)C1(c2ccccc2)CCC2(CCN(C(=O)Cc3ccccn3)C2)CC1 (stereo not shown),–,–,–,–,–,1.3 nM,95%,0.9 nM,100%
COc1ccccc1CCC(=O)N1CCC2(CCC(c3ccccc3)(N(C)C)CC2)C1 (stereo not shown),–,–,–,–,–,2.2 nM,88%,0.6 nM,99%
Cc1ccc(C(=O)N2CCC3(CCC(c4ccccc4)(N(C)C)CC3)C2)s1 (stereo not shown),1.3 nM,97.5%,0.68 nM,100%,–,–,–,–,–
CN(C)C1(c2cccs2)CCC2(CCN(C(=O)c3cccs3)C2)CC1 (stereo not shown),0.81 nM,97%,0.44 nM,98.5%,–,–,–,–,–
CN(C)C1(c2cccs2)CCC2(CCN(C(=O)c3ccc(F)s3)C2)CC1 (stereo not shown),0.44 nM,95%,0.28 nM,103%,–,–,–,–,–
Cc1ccc(C(=O)N2CCC3(CCC(c4cccs4)(N(C)C)CC3)C2)s1 (stereo not shown),1.4 nM,94.5%,0.42 nM,100.67%,100%@100 % MPE,–,–,–,–

# Read-outs that look alike come from different tables or passages of the source.
